Common to all, as to type: in vivo
Assay [1] is described as follows: Acetic acid writhing test for measuring analgesia in mice. The conditions noted are these: male mice 18~22g, s.c.; 0.6% acetic acid i.p.; limits: (I)b 6.63~18.51, buprenorphine 4.67~10.29.
Assay [2] can be described thus: Anti-morphine experiments in the hot plate test in mice. The conditions noted are these: morphine 24 mg/kg s.c. 15 min before compound s.c. (In general: Hot-plate and tail-flick tests time the reaction to a heat stimulus.)
Assay [3] is described as follows: Hot plate test for measuring analgesia in mice. The conditions noted are these: s.c.

SMILES strings stand for the structures.

Consider `CO[C@]12CC[C@@]3(C[C@@H]1[C@](C)(O)C1CC1)[C@H]1Cc4ccc(O)c5c4[C@@]3(CCN1CC1CC1)[C@H]2O5`, for which the “ED50 (95% confidence limits) in the acetic acid writhing test” value in assay [1] was 0.01108 mg/kg. Also, the “anti-Mor effect (in words)” value in assay [2] is “antagonised Mor analgesia”. In addition, in assay [2] (printed limits 345.68~456.50), the “AD50 (95% confidence limits), dosage required to inhibit Mor analgesia by 50%” value was determined as 0.39724 mg/kg. Further, the “analgesic action in the hot plate test (in words)” value in assay [3] is “failed to produce analgesia in the hot plate test”.

The values are drawn from patent publication US5849915A (priority 1996, dated 1998).
